The compounds below were run on p-SMAD2 (assay: p-SMAD2 inhibition, Western Blot Analysis in TGFβ-stimulated MDA-MB-231 cells).
Type: cell-based

Compared with `CC(C)c1cnc(-c2cc(Cl)ccc2F)cc1Nc1ccncc1C(=O)NCCN` [compound 19, N-(2-aminoethyl)-4-[[2-(5-chloro-2-fluoro-phenyl)-5-isopropyl-4-pyridyl]amino] pyridine-3-carboxamide], `C=C(C)c1cnc(-c2cc(Cl)ccc2F)cc1Nc1ccncc1C(=O)NCCO` [compound 26, 4-[[2-(5-chloro-2-fluoro-phenyl)-5-isopropenyl-4-pyridyl]amino]-N-(2-hydroxyethyl)pyridine-3-carboxamide] is lower in “Average p-SMAD2 inhibition @ 0.5 μM (% Inh)” value: 93.00 % Inh for the first, 89.00 % Inh for the second.

Going from `COC(C)(C)c1cnc(-c2cc(Cl)ccc2F)cc1Nc1ccncc1C(=O)NCC(C)O` (single isomer, unassigned) [17a, 4-[[2-(5-chloro-2-fluoro-phenyl)-5-(1-methoxy-1-methyl-ethyl)-4-pyridyl]amino]-N-(2-hydroxypropyl)pyridine-3-carboxamide] to `C=C(C)c1cnc(-c2cc(Cl)ccc2F)cc1Nc1ccncc1C(=O)NC[C@H](C)O` [3a, (S)-4-(2-(5-chloro-2-fluorophenyl)-5-(prop-1-en-2-yl)pyridin-4-ylamino)-N-(2-hydroxypropyl)pyridine-5-carboxamide], the “Average p-SMAD2 inhibition @ 0.5 μM (% Inh)” value falls from 81.67 % Inh to 78.00 % Inh.

First: C=C(C)c1cnc(-c2cc(Cl)ccc2F)cc1Nc1ccncc1C(=O)N[C@H](CO)C(C)C [25b, 4-[[2-(5-chloro-2-fluoro-phenyl)-5-vinyl-4-pyridyl]amino]-N-[(1S)-1-(hydroxymethyl)-2-methyl-propyl]pyridine-3-carboxamide]
Second: C=C(C)c1cnc(-c2cc(Cl)ccc2F)cc1Nc1ccncc1C(=O)N[C@@H](CO)C(C)C [25a, 4-[[2-(5-chloro-2-fluoro-phenyl)-5-vinyl-4-pyridyl]amino]-N-[(1R)-1-(hydroxymethyl)-2-methyl-propyl]pyridine-3-carboxamide]
The “Average p-SMAD2 inhibition @ 0.5 μM (% Inh)” value of the first is lower: 12.67 % Inh for the first, 18.67 % Inh for the second.

Compared with `C=C(C)c1c(Nc2ccncc2C(=O)NC[C@H](C)O)cc(-c2cc(Cl)ccc2F)nc1N` (single isomer, unassigned) [23a], `C=C(C)c1cnc(-c2cc(Cl)ccc2F)cc1Nc1ccncc1C(=O)N[C@H](C)CO` [7b, (2R)-4-[[2-(5-chloro-2-fluoro-phenyl)-5-isopropenyl-4-pyridyl]amino]-N-(2-hydroxy-1-methyl-ethyl)pyridine-3-carboxamide] is lower in “Average p-SMAD2 inhibition @ 0.5 μM (% Inh)” value: 93.67 % Inh for the first, 78.67 % Inh for the second.

With `C=C(C)c1cnc(-c2cc(Cl)ccc2F)cc1Nc1ccncc1C(=O)N[C@@H](CC)CO` (single isomer, unassigned) [24a] the “Average p-SMAD2 inhibition @ 0.5 μM (% Inh)” value was 68.33 % Inh.

Going from `COC(C)(C)c1cnc(-c2cc(Cl)ccc2F)cc1Nc1ccncc1C(=O)NCC(C)O` (single isomer, unassigned) [17a, 4-[[2-(5-chloro-2-fluoro-phenyl)-5-(1-methoxy-1-methyl-ethyl)-4-pyridyl]amino]-N-(2-hydroxypropyl)pyridine-3-carboxamide] to `C=C(C)c1cnc(-c2cc(Cl)ccc2F)cc1Nc1ccncc1C(=O)NC[C@H](C)O` [3a, (S)-4-(2-(5-chloro-2-fluorophenyl)-5-(prop-1-en-2-yl)pyridin-4-ylamino)-N-(2-hydroxypropyl)pyridine-5-carboxamide], the “Average p-SMAD2 inhibition @ 0.1 μM (% Inh)” value rises from 25.33 % Inh to 45.67 % Inh.

Compared with `C=C(C)c1cnc(-c2cc(Cl)ccc2F)cc1Nc1ccncc1C(=O)N[C@H](CO)C(C)C` [25b, 4-[[2-(5-chloro-2-fluoro-phenyl)-5-vinyl-4-pyridyl]amino]-N-[(1S)-1-(hydroxymethyl)-2-methyl-propyl]pyridine-3-carboxamide], `C=C(C)c1cnc(-c2cc(Cl)ccc2F)cc1Nc1ccncc1C(=O)N[C@@H](CO)C(C)C` [25a, 4-[[2-(5-chloro-2-fluoro-phenyl)-5-vinyl-4-pyridyl]amino]-N-[(1R)-1-(hydroxymethyl)-2-methyl-propyl]pyridine-3-carboxamide] is higher in “Average p-SMAD2 inhibition @ 0.1 μM (% Inh)” value: 14.33 % Inh for the first, 15.33 % Inh for the second.

Going from `C=C(C)c1c(Nc2ccncc2C(=O)NC[C@H](C)O)cc(-c2cc(Cl)ccc2F)nc1N` (single isomer, unassigned) [23a] to `C=C(C)c1cnc(-c2cc(Cl)ccc2F)cc1Nc1ccncc1C(=O)N[C@H](C)CO` [7b, (2R)-4-[[2-(5-chloro-2-fluoro-phenyl)-5-isopropenyl-4-pyridyl]amino]-N-(2-hydroxy-1-methyl-ethyl)pyridine-3-carboxamide], the “Average p-SMAD2 inhibition @ 0.1 μM (% Inh)” value falls from 46.33 % Inh to 36.33 % Inh.

Going from `C=C(C)c1cnc(-c2cc(Cl)ccc2F)cc1Nc1ccncc1C(=O)N[C@@H](CC)CO` (single isomer, unassigned) [24a] to `C=C(C)c1cnc(-c2cc(Cl)ccc2F)cc1Nc1ccncc1C(=O)NCCO` [compound 26, 4-[[2-(5-chloro-2-fluoro-phenyl)-5-isopropenyl-4-pyridyl]amino]-N-(2-hydroxyethyl)pyridine-3-carboxamide], the “Average p-SMAD2 inhibition @ 0.1 μM (% Inh)” value rises from 17.00 % Inh to 64.00 % Inh.

Compared with `CC(=O)NCCNC(=O)c1cnccc1Nc1cc(-c2cc(Cl)ccc2F)ncc1C(C)C` [compound 14, N-(2-acetamidoethyl)-4-[[2-(5-chloro-2-fluoro-phenyl)-5-isopropyl-4-pyridyl]amino]pyridine-3-carboxamide], `CC(C)c1cnc(-c2cc(Cl)ccc2F)cc1Nc1ccncc1C(=O)NC(CO)CO` [compound 22, 4-[[2-(5-chloro-2-fluoro-phenyl)-5-isopropyl-4-pyridyl]amino]-N-[2-hydroxy-1-(hydroxymethyl)ethyl]pyridine-3-carboxamide] is higher in “Average p-SMAD2 inhibition @ 0.1 μM (% Inh)” value: 45.00 % Inh for the first, 50.00 % Inh for the second.

Source: US11053216B2, “Compounds and methods of use” (Medivation Technologies LLC, priority 2014, dated 2021)
